Ab-91 heavy chain CDR variants: yeast mating affinities

Data: MIT Lincoln Laboratory AlphaSeq set, Engelhart et al. 2022, doi:10.1038/s41597-022-01779-4, as distributed in FLAb.

Target: peptide PDVDLGDISGINAS, taken from heptad repeat 2 (HR2) of SARS-CoV-2 spike.

Parent: Ab-91, a human scFv built as VL, three GGGGS repeats, VH. Only the CDRs of the heavy chain vary.
VL: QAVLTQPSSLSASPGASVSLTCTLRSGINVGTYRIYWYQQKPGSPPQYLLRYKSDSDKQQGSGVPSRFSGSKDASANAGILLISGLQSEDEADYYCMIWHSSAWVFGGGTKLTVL
VH: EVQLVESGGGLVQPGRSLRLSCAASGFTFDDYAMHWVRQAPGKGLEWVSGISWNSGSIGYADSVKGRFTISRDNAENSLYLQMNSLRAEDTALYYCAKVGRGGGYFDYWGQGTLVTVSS

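The library (AAYL51) carries one to three amino acid substitutions per variant, with no insertions or deletions. The scFvs were displayed on barcoded MATa yeast, the peptide on MATalpha yeast. Binding brings cells together so that they mate, and sequencing counts the barcode pairs among the diploids. Scores were corrected for input abundance and mapped to Kd with protein pairs of known affinity run in the same pool. Each pool was mated in three replicate cultures.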

Positions count from residue 1 of the parent VH; K65S puts S in place of K. All variants listed here change G100 of the VH, counted from its first residue. Each Kd is an estimate from the mating assay, the geometric mean of the replicates in which the pair was seen; lower is stronger. Where no diploid with the target was found in any replicate, the entry reads "nd": below detection, most likely a poor binder, though not proof of it.

For K65S+G100K+F106R, the assay gave nd (0 of 3 replicates). With G26P+G59W+G100L the result was 62 µM (2 of 3 replicates). The variant D62I+G100K+Y105A gave nd (0 of 3 replicates). The variant V99G+G100A+Y105L gave 220 µM (2 of 3 replicates). With D30Q+G100C+F106S the result was 3.5 nM (3 of 3 replicates). The variant V99W+G100Q gave 42 µM (1 of 3 replicates).

The variant G26V+G50T+G100N gave nd (0 of 3 replicates). With G100I+Y105E the result was 150 µM (3 of 3 replicates). The variant A33F+G100F+F106N gave 49 µM (2 of 3 replicates). For S63L+V99Y+G100V, the assay gave nd (0 of 3 replicates). With D31V+G50V+G100F the result was nd (0 of 3 replicates). The variant S57Y+G100R+F106V showed 29 µM (3 of 3 replicates).

With S63M+G100I the result was 11 µM (2 of 3 replicates). For F29C+G100V+G104W, the assay gave 88 µM (2 of 3 replicates). The variant T28F+G100H gave nd (0 of 3 replicates). With G56S+V99A+G100D the result was 610 nM (3 of 3 replicates). The variant D62M+G100S+G104A showed 5.5 µM (2 of 3 replicates). For F29C+G100F, the assay gave nd (0 of 3 replicates).

The variant S57R+D62S+G100D showed 8.1 µM (1 of 3 replicates). The variant Y60A+G100Q+F106P showed 17 µM (2 of 3 replicates). For A33D+G56L+G100S, the assay gave 1.8 µM (1 of 3 replicates). For G100C+G104Y+Y108M, the assay gave 8.1 µM (1 of 3 replicates). With N54Q+G100V+Y105I the result was nd (0 of 3 replicates). With G100L+F106W+Y108D the result was 14 µM (2 of 3 replicates).

The variant G56I+G100I+F106A gave 43 µM (1 of 3 replicates). With G100Y+Y105Q the result was 6.1 nM (3 of 3 replicates). The variant G100D showed nd (0 of 3 replicates). The variant Y32P+S55R+G100M showed 180 µM (2 of 3 replicates). The variant F27E+I58V+G100S gave nd (0 of 3 replicates). The variant F29G+G100E showed nd (0 of 3 replicates).

The variant Y60L+G100T gave 2.1 mM (1 of 3 replicates). With I51F+S55N+G100W the result was nd (0 of 3 replicates). With D30H+V99H+G100P the result was 72 µM (2 of 3 replicates). The variant G50V+A61N+G100I showed 86 µM (1 of 3 replicates). The variant G100R+G102H gave nd (0 of 3 replicates). The variant F29A+Y32D+G100M showed 61 µM (1 of 3 replicates).

With I51L+G56P+G100E the result was 550 µM (2 of 3 replicates). With K65Y+G100S+Y108W the result was 18 µM (2 of 3 replicates). With A33H+K65E+G100R the result was 16 µM (1 of 3 replicates). With T28V+K65H+G100C the result was nd (0 of 3 replicates).

Picked from the list: the 5 lowest averages where every replicate gave a value.

The variant D30Q+G100C+F106S showed 3.5 nM (3 of 3 replicates).
The variant G100Y+Y105Q showed 6.1 nM (3 of 3 replicates).
The variant G56S+V99A+G100D showed 610 nM (3 of 3 replicates).
The variant S57Y+G100R+F106V showed 29 µM (3 of 3 replicates).
The variant G100I+Y105E showed 150 µM (3 of 3 replicates).

For reference, the parent read 72 nM as the reference entry and 7.5 nM as a member of this library. Three control strains display no target. For library AAYL51, 21% of the pairings with them gave a signal, with a median of 34 µM and one signal in twenty below 1.8 µM, so weak values seen in few replicates may be background.